Data: ChEMBL document CHEMBL5365484, “Discovery and Characterization of Novel CNS-Penetrant GPR55 Agonists” (J Med Chem, 2023)

Protein sequences, listed by entry. Tags and fused reporters are not part of them.
UniProt P21554, whole entry: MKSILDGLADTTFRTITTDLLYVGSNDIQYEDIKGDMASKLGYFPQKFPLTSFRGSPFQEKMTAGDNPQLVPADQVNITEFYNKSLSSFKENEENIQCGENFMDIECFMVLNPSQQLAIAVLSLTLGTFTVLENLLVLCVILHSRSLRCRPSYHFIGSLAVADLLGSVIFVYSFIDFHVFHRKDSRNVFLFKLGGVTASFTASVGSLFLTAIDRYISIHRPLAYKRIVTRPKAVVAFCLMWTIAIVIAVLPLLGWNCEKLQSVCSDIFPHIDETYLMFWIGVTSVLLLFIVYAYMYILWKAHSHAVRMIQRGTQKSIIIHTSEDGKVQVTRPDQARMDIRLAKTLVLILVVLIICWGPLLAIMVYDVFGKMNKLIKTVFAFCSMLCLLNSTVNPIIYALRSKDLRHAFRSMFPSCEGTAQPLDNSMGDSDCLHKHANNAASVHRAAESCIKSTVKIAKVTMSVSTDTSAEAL
UniProt P34972, whole entry: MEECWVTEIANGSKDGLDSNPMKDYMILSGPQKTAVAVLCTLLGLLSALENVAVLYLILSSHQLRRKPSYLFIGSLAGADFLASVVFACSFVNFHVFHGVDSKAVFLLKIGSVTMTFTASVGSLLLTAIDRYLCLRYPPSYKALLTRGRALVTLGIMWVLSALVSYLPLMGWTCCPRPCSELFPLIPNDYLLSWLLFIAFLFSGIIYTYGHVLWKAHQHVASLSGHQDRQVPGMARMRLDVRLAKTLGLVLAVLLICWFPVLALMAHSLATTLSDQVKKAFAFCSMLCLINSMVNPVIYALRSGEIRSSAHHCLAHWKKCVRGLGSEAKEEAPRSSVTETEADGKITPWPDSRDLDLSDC
UniProt P23975, whole entry: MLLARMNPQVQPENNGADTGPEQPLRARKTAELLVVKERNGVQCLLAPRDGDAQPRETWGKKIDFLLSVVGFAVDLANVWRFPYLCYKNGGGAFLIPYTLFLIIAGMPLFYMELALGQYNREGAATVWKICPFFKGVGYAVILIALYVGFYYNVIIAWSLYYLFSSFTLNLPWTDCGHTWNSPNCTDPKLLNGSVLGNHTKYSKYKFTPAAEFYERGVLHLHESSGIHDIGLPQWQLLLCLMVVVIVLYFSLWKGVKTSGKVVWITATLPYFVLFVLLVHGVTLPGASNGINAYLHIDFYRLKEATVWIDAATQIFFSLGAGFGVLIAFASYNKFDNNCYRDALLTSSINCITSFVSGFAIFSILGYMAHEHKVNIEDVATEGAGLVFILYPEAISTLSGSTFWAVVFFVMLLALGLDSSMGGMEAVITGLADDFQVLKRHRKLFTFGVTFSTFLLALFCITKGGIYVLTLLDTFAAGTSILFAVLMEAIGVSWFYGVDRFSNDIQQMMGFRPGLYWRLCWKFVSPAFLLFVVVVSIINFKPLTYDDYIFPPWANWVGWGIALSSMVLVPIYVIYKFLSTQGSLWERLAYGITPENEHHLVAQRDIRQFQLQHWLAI
UniProt Q01959, whole entry: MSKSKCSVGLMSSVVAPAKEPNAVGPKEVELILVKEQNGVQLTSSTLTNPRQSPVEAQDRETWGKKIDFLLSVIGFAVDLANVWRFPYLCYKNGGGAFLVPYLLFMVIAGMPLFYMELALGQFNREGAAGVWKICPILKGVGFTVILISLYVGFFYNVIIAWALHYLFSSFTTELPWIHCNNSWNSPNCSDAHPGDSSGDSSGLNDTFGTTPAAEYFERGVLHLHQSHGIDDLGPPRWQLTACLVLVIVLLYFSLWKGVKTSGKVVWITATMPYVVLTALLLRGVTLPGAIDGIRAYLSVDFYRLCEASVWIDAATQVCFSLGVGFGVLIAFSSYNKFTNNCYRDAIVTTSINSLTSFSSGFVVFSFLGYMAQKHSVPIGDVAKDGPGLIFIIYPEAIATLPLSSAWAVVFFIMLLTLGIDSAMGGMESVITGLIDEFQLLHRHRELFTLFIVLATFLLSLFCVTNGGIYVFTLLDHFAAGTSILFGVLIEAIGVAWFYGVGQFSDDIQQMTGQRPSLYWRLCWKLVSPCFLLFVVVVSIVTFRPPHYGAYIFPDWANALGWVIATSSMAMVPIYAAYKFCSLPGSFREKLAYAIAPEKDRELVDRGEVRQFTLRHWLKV
UniProt P41595, whole entry: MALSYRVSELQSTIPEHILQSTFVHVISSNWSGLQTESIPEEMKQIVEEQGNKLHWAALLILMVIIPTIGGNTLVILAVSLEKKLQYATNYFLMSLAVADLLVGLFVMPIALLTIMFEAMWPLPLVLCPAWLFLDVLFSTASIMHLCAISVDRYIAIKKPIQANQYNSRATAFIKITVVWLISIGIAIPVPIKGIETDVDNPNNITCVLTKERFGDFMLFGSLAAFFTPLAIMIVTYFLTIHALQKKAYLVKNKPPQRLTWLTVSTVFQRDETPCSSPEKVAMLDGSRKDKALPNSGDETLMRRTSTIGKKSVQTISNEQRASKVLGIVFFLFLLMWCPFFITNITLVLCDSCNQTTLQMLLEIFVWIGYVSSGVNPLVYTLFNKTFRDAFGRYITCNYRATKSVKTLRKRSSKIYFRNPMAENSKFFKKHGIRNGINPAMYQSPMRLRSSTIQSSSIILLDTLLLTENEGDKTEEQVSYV

Tests used:
[1] = target: Cannabinoid receptor 1 (Homo sapiens) (UniProt P21554); assay: Displacement of [3H]SR141716A from recombinant human CB1 receptor at 10 uM by radioligand binding assay
[2] = target: Cannabinoid receptor 2 (Homo sapiens) (UniProt P34972); assay: Displacement of 3H]WIN-55212-2 from recombinant human CB2 receptor at 10 uM by radioligand binding assay
[3] = target: Sodium-dependent noradrenaline transporter (Homo sapiens) (UniProt P23975); assay: Displacement of [125I]RTI-55 from recombinant human norepinephrine transporter at 10 uM by radioligand binding assay
[4] = target: Sodium-dependent dopamine transporter (Homo sapiens) (UniProt Q01959); assay: Displacement of [125I]RTI-55 from recombinant human dopamine transporter at 10 uM by radioligand binding assay
[5] = target: 5-hydroxytryptamine receptor 2B (Homo sapiens) (UniProt P41595); assay: Displacement of [3H]LSD from recombinant human 5-HT2B receptor at 10 uM by radioligand binding assay

Structure (SMILES) | inhibition [1] | inhibition [2] | inhibition [3] [%] | inhibition [4] [%] | inhibition [5] [%]
C[C@@H](Nc1ncc(-c2ccc3oc(=O)n(C)c3c2)nn1)c1ccc(F)cc1 | inactive | inactive | 52 | 53 | –
C[C@@H](Nc1ccc(-c2cccnc2)cn1)c1ccc(F)cc1 | 51% | – | 83.7 | – | 60
C[C@@H](Nc1ncc(-c2cncc(S(C)(=O)=O)c2)cn1)c1ccc(F)cc1 | inactive | inactive | 41 | 70 | –
C[C@@H](Nc1cnc(-c2cncc(CC(F)(F)F)c2)cn1)c1ccc(F)cc1 | inactive | inactive | 64 | 73 | –

Activity calls are given as the source filed them. The rule behind the calls is not given here.
